In patent US20230302140A1, “CONJUGATE OF A SINGLE DOMAIN ANTIBODY, A SAPONIN AND AN EFFECTOR MOLECULE, PHARMACEUTICAL COMPOSITION COMPRISING THE SAME, THERAPEUTIC USE OF SAID PHARMACEUTICAL COMPOSITION” (SAPREME TECHNOLOGIES B.V., priority 2020, published 2023):

Assays:
[1] = tested on: SK-BR-3 cells; assay: Cell killing (MTS cell viability) assay; assay type: cell-based, human
[2] = tested on: HSP27 mRNA in A2058 cells (EGFR-); assay: HSP27 gene silencing in cancer cells; assay type: cell-based, human
[3] = tested on: HSP27 mRNA in A431 tumors; assay: A431 xenograph mouse tumor model, HSP27 gene expression in tumors; assay type: in vivo; details: 1 dosing 30 mg/kg, tumors collected 72 h after first dosing
[4] = tested on: MDA-MB-468 cells; assay: Cell killing (MTS cell viability) assay; assay type: cell-based, human
[5] = tested on: A431 cells; assay: Cell killing (MTS cell viability) assay; assay type: cell-based, human
[6] = tested on: A2058 cells; assay: Cell killing (MTS cell viability) assay; assay type: cell-based, human
[7] = monkeys; DM1 conjugated to trastuzumab versus unconjugated; cited from earlier work
[8] = tested on: HeLa cells; assay: Cell killing (MTS cell viability) assay; assay type: cell-based, human; details: +50 pM trastuzumab-saporin (fixed); Ex.9/Table A6: calculated on concentration SO1861
[9] = tested on: A431 tumor; assay: A431 xenograph mouse tumor model, tumor volume; assay type: in vivo; details: for outcome (death/euthanasia or survival) / tumor size (volume): Balb/c nude mice, sub-optimal ADC dose; for outcome (death/euthanasia or survival): A431 xenograft; for tumor size (volume): start at 170-180 mm^3
[10] = +50 pM bivalentVHH-EGFR-dianthin (fixed)
[11] = +50 pM trastuzumab-saporin (fixed), Ex.8-9/Table A6: calculated on concentration SO1861

Substance: trastuzumab: monoclonal antibody recognizing and binding human HER2
- IC50 cell killing ([1]; +1.5 pM EGF-dianthin (fixed), Ex.9/Table A6: calculated on concentration SO1861): could not induce any cell killing activity
- IC50 cell killing ([1]; +5 pM cetuximab-saporin (fixed)): could not induce any cell killing activity
- IC50 cell killing ([1]; titrated alone): not observed; also recorded: could not induce any cell killing activity

Substance: cetuximab-Cys-(SO1861-L-trifunctional linker-L-HSP27BNA)^3,7: SO1861-L-trifunctional linker-L-HSP27BNA conjugated to cysteine residues of cetuximab
- IC50 [2]: 100 nM
- reduction in HSP27 mRNA expression in the tumors compared to single dosing of the mono therapies [3]: 40%
- reduction of HSP27 gene expression compared to vehicle control tumors [3]: 25%

Substance: Cetuximab-SO1861 (DAR4): cetuximab conjugated to SO1861-EMCH, DAR4
- IC50 [1, 10]: 200 nM
- IC50 [4, 10]: 0.5 nM
- IC50 [5, 10]: 4 nM
- IC50 [6, 10]: 400 nM

Substance: T-DM1: Trastuzumab-emtansine carrying ~3.5 DM1 toxin molecules per antibody
- enhancement of the tolerable dose of DM1 [7]: at least two-fold

Substance: trastuzumab-(L-SO1861)^3′^8
- IC50 cell killing ([1]; titrated alone): not observed

Substance: cetuximab-(Cys-L-SO1861)^3,7: SO1861-EMCH conjugated via cysteine residues to cetuximab, DAR 3,7
- IC50 [5, 11]: 3 nM
- IC50 cell killing ([5]; titrated alone): could not induce any cell killing activity
- IC50 ([6]; +50 pM trastuzumab-saporin (fixed), Ex.9/Table A6: calculated on concentration SO1861): > 400 nM
- IC50 [8]: 400 nM

Substance: cetuximab-(Cys-L-SO1861)^3,9(Lys-L-HSP27BNA)^1,8: cetuximab with SO1861-EMCH (DAR 3,9) and antisense HSP27BNA (DAR 1,8)
- reduction in HSP27 mRNA expression in the tumors compared to single dosing of the mono therapies [3]: 40%
- reduction of HSP27 gene expression compared to vehicle control tumors [3]: 25%

Substance: Cetuximab-(Cys-L-SO1861)^3,8(Lys-L-HSP27BNA)^3,8: cetuximab with labile SO1861 and labile HSP27BNA oligonucleotide
- IC50 [2]: > 100 nM

Substance: trastuzumab-SO1861 (DAR4): trastuzumab conjugated to SO1861-EMCH, DAR4
- IC50 [4, 10]: 400 nM
- IC50 [5, 10]: 400 nM
- IC50 [6, 10]: 400 nM

Substance: cetuximab-SO1861: cetuximab conjugated to saponin SO1861 via cleavable hydrazone linker, DAR 3.7
- IC50 ([4]; +10 pM EGF-dianthin (fixed), Table A6: calculated on concentration SO1861): 6 nM
- IC50 ([4]; +10 pM cetuximab-saporin (fixed), Table A6: calculated on concentration SO1861): 3 nM
- IC50 ([4]; +50 pM trastuzumab-saporin (fixed), Table A6: calculated on concentration SO1861): 18 nM
- IC50 ([5]; +10 pM EGF-dianthin (fixed), calculated on concentration SO1861): 8 nM
- IC50 ([5]; +10 pM cetuximab-saporin (fixed), calculated on concentration SO1861): 5 nM
- IC50 [5, 11]: 12 nM
- outcome (death/euthanasia or survival) [9]: death/euthanasia
- tumor size (volume) [9]: 2000 mm^3

Substance: cetuximab: monoclonal antibody recognizing and binding human EGFR [reference compound]
- IC50 cell killing [5, 11]: could not induce any cell killing activity
- IC50 cell killing ([5]; titrated alone): could not induce any cell killing activity
- IC50 ([6]; titrated alone): > 3 nM
- tumor volume versus controls ([9]; 25 mg/kg cetuximab-(Cys-L-SO1861)^4 i.p. + 0.03 mg/kg toxin conjugate i.v., day 9, 14, then weekly, cetuximab as positive control): only tumor growth inhibition, but no regression
- outcome (death/euthanasia or survival) [9]: death/euthanasia
- tumor size (volume) [9]: > 170 mm^3, but < 2000 mm^3

Substance: trastuzumab-(Cys-L-SO1861)^4: SO1861-EMCH conjugated via cysteine residues to trastuzumab, DAR 4
- IC50 cell killing ([1]; titrated alone): could not induce any cell killing activity
- IC50 ([4]; +1.5 pM EGF-dianthin (fixed), Table A6: calculated on concentration SO1861): > 1000 nM

“Also recorded” adds a separate entry of the source.
